# Measured values: patent US9290529B2, “Carbonic anhydrase inhibitors and method of their production” (USTAV ORGANICKE CHEMIE A BIOCHEMIE AKADEMIE VED CESKE …, priority 2011, dated 2016)
# Assay: Orientational pharmacokinetics, serum concentrations by HPLC
# Settings: intraperitoneally at the MTD, female NMRI mice
row,Substance,serum concentrations overcoming carbonic anhydrase IX in vitro IC50 (calculated from the cmax values) [×]
1,"8-methylensulfamide-8″-methoxy-3,3′-commo-bis(1,2-dicarba-3-cobalta(III)-closo-dodecabor)ate (1-) [CB-4]",120
2,"8-butyloxysulfamide-3,3′-commo-bis(decahydro-1,2-dicarba-3-cobalta(III)-closo-dodekabor)ate (1-) [CB-16]",12
